These results are taken from patent US9737532B2, “Method of treating ischemia/reperfusion injury” (TOKYO UNIVERSITY OF SCIENCE FOUNDATION, priority 2011, dated 2017).

This test concerns p53. The experiment in a line: p53 protein stabilization by Western blotting in mouse fibroblast cells. Format: cell-based. The conditions noted are these: 3T3-F442A cells, 8 hours, FIG. 4A. (A western blot detects proteins with antibodies after separation by electrophoresis.)

Nutlin3a: the p53 protein stabilization entry was “induced p53 protein stabilization”.
